This is an account of results in patent US20240287138A1, “CYCLIC PEPTIDES FOR INHIBITING TNF RECEPTOR 1 ACTIVITY” (Merck Sharp & Dohme LLC, priority 2023, published 2024).

The chains behind the UniProt entries cited, without tags or fusion partners. Residues count along the entry.
UniProt P20333, 23-257 limits assumed: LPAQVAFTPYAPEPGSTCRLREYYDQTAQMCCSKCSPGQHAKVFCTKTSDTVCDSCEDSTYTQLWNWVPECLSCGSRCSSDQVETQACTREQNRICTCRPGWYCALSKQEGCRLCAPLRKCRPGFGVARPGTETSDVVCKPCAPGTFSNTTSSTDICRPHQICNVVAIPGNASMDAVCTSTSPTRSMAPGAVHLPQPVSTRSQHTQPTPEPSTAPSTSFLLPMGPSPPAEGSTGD

This assay has as its target human TNFR2 ECD protein (Homo sapiens, UniProt P20333). As to the kind of experiment: SPR off-target binding (selectivity) to human TNFR2 ECD. To be noted: read-out: SPR hTNFR2 KD; biotinylated human TNFR2 ECD on streptavidin chip. How it is done: B. Procedure for Binding Affinity and Selectivity measured by SPR
Affinity and selectivity for hTNFR1 and TNFR2 was determined using SPR. Human TNFR1 or TNFR2 genes (extracellular domain only) were synthesized with a C-terminal Avi-tag, HRV 3C protease cleavage site followed by a 6His-tag for affinity purification. The final gene product was cloned into pBAC™-1 vector (Millipore Sigma) for expression testing in insect cells. Constructs were transfected into Sf21 cells for baculovirus generation followed by protein expression analysis in Sf21 and Tni cell lines. Large scale expression in Sf21 cells was performed using baculovirus infected insect cells (BIICs) infected at a MOI=2.0 grown for 72 h. Target proteins secreted into the media were harvested via centrifugation and concentrated using diafiltration. TNFR was purified by immobilized metal ion affinity chromatography (IMAC) using a Ni-Sepharose HisTrap™ column (Cytiva™). Isolated TNFR had His tag removed using HRV 3C protease followed by additional purification using Ni-NTA chromatography. […]
The SPR assay uses a Cytiva™ 8K or 8K+ biosensor instrument to measure the kinetics of peptide analytes binding to captured human TNFR1 extracellular domain (ECD) protein; peptide analytes are also evaluated for any off-target binding to human TNFR2 ECD protein in parallel. […]

The term Kd denotes the free concentration of one partner at which half of the binding sites on the other are occupied at equilibrium, for simple one-to-one binding.

For `CCCC[C@@H]1NC(=O)C2CCC(CC2)NC(=O)[C@H]([C@@H](C)c2c[nH]c3c(OC)cccc23)NC(=O)CN(C)C(=O)[C@H](Cc2ccc(O)cc2)NC(=O)[C@H](Cc2ccc(C(=O)O)cc2)NC(=O)[C@](C)(CO)NC(=O)[C@H](Cc2c[nH]c3c(Cl)cccc23)NC(=O)[C@H](Cc2ccncc2)NC(=O)[C@H](CC(N)=O)NC(=O)[C@H](CCC(=O)O)N(C)C(=O)[C@H](Cc2c[nH]c3ccccc23)NC(=O)[C@@H]2CNCCN2C(=O)[C@H](Cc2ccncc2)NC1=O`, the Kd was more than 1000 nM.
